From paper PMC4776319 (Water research, 2015)

Chains of the proteins cited; added tags and fusions are not shown. Residues count along the entry.
UniProt P37231, 238-505 limits assumed: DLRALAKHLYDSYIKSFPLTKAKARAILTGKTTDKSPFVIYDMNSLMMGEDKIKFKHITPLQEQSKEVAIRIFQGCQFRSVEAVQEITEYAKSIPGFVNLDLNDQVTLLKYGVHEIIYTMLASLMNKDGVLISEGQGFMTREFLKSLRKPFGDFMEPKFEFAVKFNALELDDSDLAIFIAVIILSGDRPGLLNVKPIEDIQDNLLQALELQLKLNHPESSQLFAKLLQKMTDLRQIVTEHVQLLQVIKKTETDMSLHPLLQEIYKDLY

Target: peroxisome proliferator-activated receptor (PPARγ) (Homo sapiens, UniProt P37231)
Settings: reference chemical

`CN(CCOc1ccc(CC2SC(=O)NC2=O)cc1)c1ccccn1` (stereo not shown) [Rosiglitazone] was tested, and the EC10 was “EC10 (0.33 nM); EC50 (3.9 nM)”.
